# Ab-14 light chain CDR variants: yeast mating affinities

The measurements come from Li et al. 2023 (doi:10.1038/s41467-023-39022-2) through the FLAb antibody collection.

Target: peptide PDVDLGDISGINAS, taken from heptad repeat 2 (HR2) of SARS-CoV-2 spike.

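The parent was found by panning a naive human phage display library on the peptide. Designed CDR sequences, proposed from the first random library and measured here. Several design methods are mixed in this list. The scFvs were displayed on barcoded MATa yeast, the peptide on MATalpha yeast. After mating in shaken culture at 30 °C for 16 h, diploids were selected and their barcode pairs sequenced. Each replicate has its own calibration line, from reference interactions of the BCL2 family. There are six technical replicates.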

The variants keep the heavy chain, the linker and the frameworks of Ab-14 (scFv order VH, the linker GGGGSGGGGSGGGGS, VL).
VH: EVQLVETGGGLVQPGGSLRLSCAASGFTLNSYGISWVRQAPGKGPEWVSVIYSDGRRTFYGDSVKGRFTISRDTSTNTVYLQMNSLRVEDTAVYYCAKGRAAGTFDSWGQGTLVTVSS
VL: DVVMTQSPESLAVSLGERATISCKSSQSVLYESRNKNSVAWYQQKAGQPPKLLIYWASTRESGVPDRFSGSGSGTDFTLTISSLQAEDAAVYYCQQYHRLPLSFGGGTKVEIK

Variants are written as CDR1, CDR2 and CDR3 of the light chain (limits as in the source). Parent: KSSQSVLYESRNKNSVA, WASTRES, QQYHRLPLS. This list holds designs with at most six substitutions. Values are log10 of the apparent Kd in nM; lower means stronger binding. Replicates are averaged; those with no signal do not enter the mean. "nd" marks a missing value. The strain was present, yet no cells mated with the target were sequenced in that replicate, which points to weak or no binding. Entries are sorted by rising average, undetected variants last. As a blank, each scFv also met three strains without target: over all light chain designs, 4% of these pairings were detected, typically at 2.64 and seldom below 1.59. Also given: how often the same scFv was detected with the empty control strains.

* KLDQSELYESRNKNSVA | GASTRES | QQYHRLPLS -> -0.35, -0.44, -0.54, -0.54, -0.55, -0.32 (mean -0.46; controls 0 of 18)
* KLPQSVLYESRNKNSVA | EASTRLS | QQYHRLPLS -> -0.15, -0.40, -0.33, -0.48, -0.32, -0.22 (mean -0.32; controls 2 of 18)
* KMSQSVLYEERNKNSVA | NASQRES | QQYHRLPLS -> -0.21, -0.33, -0.32, -0.49, -0.19, -0.30 (mean -0.31; controls 1 of 18)
* KLSQSFLYEQRNKNSVA | NASTRMS | QQYHRLPLS -> -0.21, -0.29, -0.34, -0.43, -0.33, -0.21 (mean -0.30; controls 1 of 18)
* KLKQSTLYESRNQNSVA | NASTRES | QQYHRLPLS -> -0.10, -0.21, -0.35, -0.41, -0.32, -0.21 (mean -0.27; controls 3 of 18)
* KSSQSELSESRNKNSVA | DASTRES | QQYWRLPLS -> -0.13, -0.20, -0.06, -0.51, -0.11, -0.08 (mean -0.18; controls 0 of 18)
* KMSQSVLYESRNKNSVA | EGSTRES | QQYHRLPLS -> -0.15, -0.16, -0.12, -0.17, -0.21, -0.02 (mean -0.14; controls 0 of 18)
* KLSQSVLYESRNKNSVA | EASTRES | QQYHRLPLM -> 0.32, -0.04, -0.49, -0.28, -0.24, 0.06 (mean -0.11; controls 1 of 18)
* KLSQSVQYESRNKNSVA | NASTRMS | QQYHRLPLS -> -0.05, -0.06, 0.10, -0.24, -0.14, 0.40 (mean 0.00; controls 0 of 18)
* KVSQSVLYESRNKNSVA | NASTRES | QQYHRLPLT -> 0.07, -0.09, 0.17, -0.12, 0.10, 0.16 (mean 0.05; controls 2 of 18)
* KVSQSVPYESRNKNSVA | NASTRES | QDYHRLPLS -> 0.42, 0.00, -0.10, -0.19, 0.18, -0.01 (mean 0.05; controls 0 of 18)
* KSGQSVLYESRNKNSVA | GASLRES | QQYHRLPLS -> 0.12, 0.31, 0.06, 0.06, -0.07, -0.07 (mean 0.07; controls 0 of 18)
* KVPQSVLYESRNKNSVA | EASTRES | QQYHRLPLS -> 0.03, 0.07, -0.02, 0.26, 0.03, 0.14 (mean 0.09; controls 3 of 18)
* KSSISYLYESRNKNSVA | EASTREE | QQYHRLPLM -> 0.26, 0.08, 0.04, -0.06, -0.02, 0.24 (mean 0.09; controls 1 of 18)
* KLRQSTLYESRNKNSVA | QASTRLS | QQYHRLPLS -> 0.21, 0.19, 0.14, 0.11, 0.25, 0.23 (mean 0.19; controls 2 of 18)
* FLSQSNLYESRNKNSVA | NASTRES | QQYHRLPLS -> 0.43, 0.12, 0.42, 0.00, -0.02, 0.37 (mean 0.22; controls 0 of 18)
* KSLQSVLYESRNKNSVA | QASTRED | QQYHQLPLS -> 0.35, 0.35, 0.19, 0.06, 0.26, 0.17 (mean 0.23; controls 0 of 18)
* KSSQSVLYESRNKNSVA | GASTRES | QQYGRLPLS -> 0.32, 0.25, 0.67, 0.03, 0.27, 0.56 (mean 0.35; controls 1 of 18)
* KSSQSVKTESRNKNSVA | DASTRES | QQYHRLPLS -> 0.39, 0.33, 0.29, 0.32, 0.25, 0.65 (mean 0.37; controls 3 of 18)
* HSSPSTLYESRNKNSVA | NASTREE | QQYHRLPLS -> 0.75, 0.35, 0.50, 0.50, 0.33, 0.50 (mean 0.49; controls 1 of 18)
* KSSKSVLFESRNKNSVA | NASTREE | QQYHRLPLS -> 1.05, 0.61, 0.65, 0.40, 0.68, 0.69 (mean 0.68; controls 1 of 18)
* KSSVSVLYESRNSNSVA | WASTREA | QQYHRLPLY -> 1.35, 0.36, 0.66, 1.10, 1.08, 0.53 (mean 0.85; controls 0 of 18)
* KVSCSYLYESRNKNSVA | EASTRES | QQYHRLPLS -> nd, 0.49, 0.74, 0.77, 1.47, nd (mean 0.87; controls 0 of 18)
* KSSQSVLYESGNKNSVA | NASAREH | QQYHRLPLS -> 0.50, 0.71, 0.33, 1.97, 0.91, 1.06 (mean 0.91; controls 0 of 18)
* KSSQSVLYESRNKNSVA | EASTRES | VQYHRLPLS -> 0.90, 0.41, 0.98, 0.74, 2.70, 0.60 (mean 1.06; controls 0 of 18)
* KVSQSVLYESRNKNSVA | WASTRNM | QQYHRLPLT -> 1.64, 1.31, 1.24, 0.91, 1.20, 0.70 (mean 1.17; controls 0 of 18)
* KSSQSVLYLSRNKNSVA | SASTRES | QQIHRLPLS -> nd, 1.44, 1.95, nd, 0.86, 1.55 (mean 1.45; controls 0 of 18)
* KSSESVLYESNNKNSVA | WASTRES | QQYHHLPLS -> 1.08, 1.26, 2.34, 1.14, 1.86, 1.50 (mean 1.53; controls 2 of 18)
* KSSISVLYESRNKNSVA | WSSTRES | QQYHRLPLS -> 1.74, nd, 1.53, nd, nd, nd (mean 1.64; controls 0 of 18)
* KLMQSTLYESRNQNSVA | WASTRES | QQYHRLPLS -> 3.06, 2.09, 1.52, 1.09, 1.22, 2.09 (mean 1.84; controls 1 of 18)
* KSQQSVLYNSRNKNSVA | WASTRES | QQYHRLPLS -> 1.53, 1.53, nd, 2.57, 2.37, 2.69 (mean 2.14; controls 0 of 18)
* KSSQSVLYEKSNKNSVA | WASTRAS | QQYHRWPLT -> 2.44, 2.30, nd, 2.18, 2.40, 2.82 (mean 2.43; controls 2 of 18)
* KSSQSGLYESRDKNSVA | WASTRES | QQYHRLPLS -> nd, nd, 4.13, nd, 1.79, 1.97 (mean 2.63; controls 0 of 18)
* RSSQSVLYESRNKNGVA | WAKTRES | KQYHWLYLS -> nd, nd, nd, nd, nd, nd (controls 0 of 18)

Picked from the list: the 6 lowest averages where every replicate gave a value.

{"CDR-L1": "KLDQSELYESRNKNSVA", "CDR-L2": "GASTRES", "CDR-L3": "QQYHRLPLS", "replicates, log10 nM": "-0.35, -0.44, -0.54, -0.54, -0.55, -0.32", "mean, log10 nM": "-0.46", "empty controls": "0/18"}
{"CDR-L1": "KLPQSVLYESRNKNSVA", "CDR-L2": "EASTRLS", "CDR-L3": "QQYHRLPLS", "replicates, log10 nM": "-0.15, -0.40, -0.33, -0.48, -0.32, -0.22", "mean, log10 nM": "-0.32", "empty controls": "2/18"}
{"CDR-L1": "KMSQSVLYEERNKNSVA", "CDR-L2": "NASQRES", "CDR-L3": "QQYHRLPLS", "replicates, log10 nM": "-0.21, -0.33, -0.32, -0.49, -0.19, -0.30", "mean, log10 nM": "-0.31", "empty controls": "1/18"}
{"CDR-L1": "KLSQSFLYEQRNKNSVA", "CDR-L2": "NASTRMS", "CDR-L3": "QQYHRLPLS", "replicates, log10 nM": "-0.21, -0.29, -0.34, -0.43, -0.33, -0.21", "mean, log10 nM": "-0.30", "empty controls": "1/18"}
{"CDR-L1": "KLKQSTLYESRNQNSVA", "CDR-L2": "NASTRES", "CDR-L3": "QQYHRLPLS", "replicates, log10 nM": "-0.10, -0.21, -0.35, -0.41, -0.32, -0.21", "mean, log10 nM": "-0.27", "empty controls": "3/18"}
{"CDR-L1": "KSSQSELSESRNKNSVA", "CDR-L2": "DASTRES", "CDR-L3": "QQYWRLPLS", "replicates, log10 nM": "-0.13, -0.20, -0.06, -0.51, -0.11, -0.08", "mean, log10 nM": "-0.18", "empty controls": "0/18"}

The range of this assay differs from that of the first round, and the authors advise against merging the two. The authors averaged sequences with at least three values out of six and counted those with two or fewer as poor binders.